According to paper doi:10.1101/2023.08.25.554718:

Target: CX3CR1 nucleosome (human core histones, wild type) (human) (UniProt P04908)
Assay: native gel or EMSA; 0.5 μM nucleosome mixed with purified protein at different concentrations, 30 min, room temperature, 20 mM HEPES pH 7.3, 150 mM NaCl, 0.5 mM TCEP; 4% or 5% acrylamide gel in 0.2 x TBE at 4 °C; apparent Kd from a fit to the Hill equation

Substance: PU.1 ETS Q218H (^ETS-Q218HPU.1) (from UniProt P17433 165-272) (domain or fragment)
- fold reduction of the binding affinity against ^ETSPU.1 on the nucleosome with wild-type H2A: 2 fold
